This note sets out measurements from PMC6044897 (ACS Omega, 2017).

Protein sequences, listed by entry. Tags and fused reporters are not part of them. Lines headed by an entry give the natural chain unless they say otherwise; changes in a name come on top.
UniProt P08172, whole entry: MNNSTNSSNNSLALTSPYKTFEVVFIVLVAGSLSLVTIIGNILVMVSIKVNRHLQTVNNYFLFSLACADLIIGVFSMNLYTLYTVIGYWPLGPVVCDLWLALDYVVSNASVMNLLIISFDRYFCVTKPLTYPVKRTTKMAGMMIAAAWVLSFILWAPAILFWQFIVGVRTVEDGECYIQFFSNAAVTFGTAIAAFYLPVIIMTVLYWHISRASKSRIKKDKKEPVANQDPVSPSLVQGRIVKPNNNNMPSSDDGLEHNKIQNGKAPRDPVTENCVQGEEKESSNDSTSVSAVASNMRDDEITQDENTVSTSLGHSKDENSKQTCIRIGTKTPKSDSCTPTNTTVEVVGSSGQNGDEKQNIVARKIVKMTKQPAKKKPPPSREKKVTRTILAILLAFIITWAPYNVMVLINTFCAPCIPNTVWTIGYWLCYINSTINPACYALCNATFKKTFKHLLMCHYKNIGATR

The target in test [1] is T1, M2R (Homo sapiens, UniProt P08172). Put plainly: Equilibrium competition binding with [^3H]64 at CHO-hM2R cell homogenates.
Test [2] has as its target T1, M2R. Put plainly: Equilibrium competition binding with [^3H]5 at live CHO-hM2R cells.

What is called Ki is the equilibrium dissociation constant of an inhibitor or competing ligand from its target. For `CCCCCCOc1nsnc1C1=CCCN(C)C1` [Compound 1, xanomeline], the Ki at M2R [1] is 1660 nM; at M2R [2], 282 nM.
